Drawing on US4139538A (dated 1979), this text covers LD50 for 1 compound.

Usually LD50 stands for the dose at which mortality reaches 50%.

A short description of the series: in vivo. As to conditions: mouse, po.

Take `O=C1NC(=O)C(c2ccccc2)(c2ccccc2)N1` [Diphenylhydantoin, reference compound]: the 50% lethal dose (LD50) at 168 h was found to be 360 mg/kg.
